Source: patent US20230381162A1, “TREATMENTS OF ANGIOEDEMA” (KALVISTA PHARMACEUTICALS LIMITED, priority 2020, published 2023)

Amino acid sequences for entries named in this document (tags omitted). Residues count along the entry.
UniProt P03952, 20-390 partner limits assumed: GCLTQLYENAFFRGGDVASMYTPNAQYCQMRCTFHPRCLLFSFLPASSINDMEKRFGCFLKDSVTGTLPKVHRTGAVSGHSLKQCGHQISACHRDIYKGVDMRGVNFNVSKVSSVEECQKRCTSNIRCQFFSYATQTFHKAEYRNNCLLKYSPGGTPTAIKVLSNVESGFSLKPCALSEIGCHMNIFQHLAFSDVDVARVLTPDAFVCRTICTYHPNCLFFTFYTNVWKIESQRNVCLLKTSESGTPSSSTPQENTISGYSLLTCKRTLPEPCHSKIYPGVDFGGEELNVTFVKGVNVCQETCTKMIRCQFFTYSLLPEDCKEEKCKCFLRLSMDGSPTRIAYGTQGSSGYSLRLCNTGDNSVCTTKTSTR
UniProt P03952, 391-638 limits assumed: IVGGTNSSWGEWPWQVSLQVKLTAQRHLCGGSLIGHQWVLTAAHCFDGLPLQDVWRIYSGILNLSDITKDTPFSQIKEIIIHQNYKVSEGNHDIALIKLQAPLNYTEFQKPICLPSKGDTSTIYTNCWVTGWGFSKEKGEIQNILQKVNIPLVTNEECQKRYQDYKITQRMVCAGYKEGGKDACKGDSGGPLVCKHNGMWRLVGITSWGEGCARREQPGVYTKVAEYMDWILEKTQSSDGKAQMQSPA

Molecular target: plasma kallikrein (Homo sapiens, UniProt P03952)
Test: Phase 1 study: ex vivo PKa catalytic activity in DXS-stimulated undiluted plasma
Parameters: PD measurements were determined in dextran sulfate (DXS) stimulated undiluted plasma using a fluorogenic enzyme assay; from tissue; host or cells: undiluted plasma of healthy adult male volunteers after oral dosing, DXS-stimulated ex vivo
Protocol: PD measurements were determined in dextran sulfate (DXS) stimulated undiluted plasma using a fluorogenic enzyme assay and capillary based HK cleavage immunoassay.
The time until appearance of detectable amidolytic enzyme activity in DXS-stimulated plasma (lag time) was calculated from the catalytic activity assay. The detection sensitivity of the rate of catalytic activity in plasma based on using a Spark (Tecan) fluorimeter is a fluorescence increase to reach 1ΔF unit/sec.

inhibition of plasma kallikrein catalytic activity (160 mg, 300 mg and 600 mg, for a period of time): above 90% | average inhibition of plasma kallikrein catalytic activity (cohort 6 (160 mg), between 45 min and 2 hr post-dose): > 90% | average inhibition of plasma kallikrein catalytic activity (cohort 7 (300 mg), between 20 min and 4 hr post-dose): > 90% | inhibition of plasma kallikrein catalytic activity (cohort 8 (600 mg), between 30 min and 6 hr post-dose): > 90% | inhibition of plasma kallikrein catalytic activity (cohort 8 (600 mg), for 10 hr): > 50%
Compound: COCc1nn(Cc2ccc(Cn3ccccc3=O)cc2)cc1C(=O)NCc1nccc(OC)c1F [compound of Formula A, N-[(3-fluoro-4-methoxypyridin-2-yl)methyl]-3-(methoxymethyl)-1-({4-[(2-oxopyridin-1-yl)methyl]phenyl}methyl)pyrazole-4-carboxamide]
